Experimental data taken from ChEMBL document CHEMBL4364246, “Synthesis and biological evaluation of 5-aminoethyl benzophenanthridone derivatives as DNA topoisomerase IB inhibitors” (Eur J Med Chem, 2019).

Columns and labels:
[1] = system: A549; assay: cells; settings: Homo sapiens, A549, 72 h
[2] = system: HCT-116; assay: cells; settings: Homo sapiens, HCT-116, 72 h
[3] = system: MCF7; assay: cells; settings: Homo sapiens, MCF7, 72 h
[4] = system: DU-145; assay: cells; settings: Homo sapiens, DU-145, 72 h
[5] = system: NCI/ADR-RES; assay: Growth inhibition of human MCF7/ADR cells incubated for 72 hrs by MTT assay; assay type: functional

| SMILES | GI50 [1] [µM] | GI50 [2] [µM] | GI50 [3] [µM] | GI50 [4] [µM] | GI50 [5] [µM] |
| --- | --- | --- | --- | --- | --- |
| COc1cc2c(=O)n(CCN(C)P3(=O)OCCO3)c3c4cc5c(cc4ccc3c2cc1OC)OCO5 | 1.9 | 5.9 | 1.8 | 3.6 |  |
| CNCCn1c(=O)c2cc(OC)c(OC)cc2c2ccc3cc4c(cc3c21)OCO4 |  |  |  |  | 1.37 |
